Earlier results, collected in US20030073115A1 (priority 2002, published 2003).
One block for each substance: values may come before it.

Assays:
[1] = tested on: Galanin receptors in the dorsal hippocampus
CNS galanin receptors = settings: CNS / brain
[2] = tested on: galanin binding site in guinea pig stomach
[3] = tested on: pituitary galanin receptor; settings: rat pituitary
galanin binding sites = settings: read-out: affinity of galanin binding sites for 125I-porcine galanin; brain, spinal cord, pancreatic islets and cell lines, gastrointestinal smooth muscle

Substance: Porcine galanin 3-29: fragment 3-29 of porcine galanin
activity at CNS galanin receptors (CNS galanin receptors): inactive
affinity [2]: high affinity

Substance: [^125I]Tyr^26-porcine galanin: porcine galanin 125I-labeled at Tyr26
binding [3]: not

Substance: ^125I-porcine galanin: 125I-labeled porcine galanin, radioligand
Kd (galanin binding sites): 0.5 to 1 nM

Other lines, results leading:

affinity [1]: not
Substance: Gal (1-29): galanin 1-29

binding [3]: high-affinity binding
Substance: ^125I-Bolton and Hunter (N-terminus)-labeled galanin (1-29): N-terminally 125I-Bolton and Hunter labeled galanin (1-29)
